Laboratory results reported in US20240067660A1, “MACROCYCLIC SPIROCYCLE DERIVATIVES AS MCL-1 INHIBITORS” (Janssen Pharmaceutica NV, priority 2019, published 2024).

Chains of the proteins cited; added tags and fusions are not shown.
UniProt Q07820, whole entry: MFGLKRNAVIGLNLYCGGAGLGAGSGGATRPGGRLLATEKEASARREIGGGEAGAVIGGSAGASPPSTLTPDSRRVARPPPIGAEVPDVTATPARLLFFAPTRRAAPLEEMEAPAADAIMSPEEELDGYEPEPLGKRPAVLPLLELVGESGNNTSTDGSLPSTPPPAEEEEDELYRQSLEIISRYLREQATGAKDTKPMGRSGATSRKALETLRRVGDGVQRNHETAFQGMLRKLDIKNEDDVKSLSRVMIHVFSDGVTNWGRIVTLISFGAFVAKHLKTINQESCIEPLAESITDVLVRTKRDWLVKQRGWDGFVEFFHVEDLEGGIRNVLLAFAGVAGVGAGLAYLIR

Tests used:
[1] = molecular target: Myeloid Cell Leukemia 1(Mcl-1) (Homo sapiens (Human), UniProt Q07820); assay: Terbium labeled Mcl-1 HTRF binding assay with Cy5-labeled BIM BH3 peptide; conditions: read-out: HTRF Ki; obtained after recalibration of the equipment; averaged values over several runs
Description: Terbium labeled Myeloid Cell Leukemia 1(Mcl-1) homogeneous time-resolved fluorescence (HTRF) binding assay utilizing the BIM BH3 peptide (H2N-(C/Cy5Mal) WIAQELRRIGDEFN-OH) as the binding partner for Mcl-1.
This assay evaluated inhibition of the BH3 domain: Mcl-1 interaction by measuring the displacement of Cy5-labeled BIM BH3 peptide (H2N—(C/Cy5Mal) WIAQELRRIGDEFN-OH) in the HTRF assay format.
The following assay and stock buffers were prepared for use in the assay: (a) Stock buffer: 10 mM Tris-HCl, pH=7.5+150 mM NaCl, filtered, sterilized, and stored at 4° C.; and (b) 1× assay buffer, where the following ingredients were added fresh to stock buffer: 2 mM dithiothreitol (DTT), 0.0025% Tween-20, 0.1 mg/mL bovine serum albumin (BSA). […]
The TR-FRET signal was read on an BMG PHERAStar FSX MicroPlate Reader at room temperature using the HTRF optic module (HTRF: excitation: 337 nm, light source: laser, emission A: 665 nm, emission B: 620 nm, integration start: 60 μs, integration time: […]).
The BMG PHERAStar FSX MicroPlate Reader was used to measure fluorescence intensity at two emission wavelengths—665 nm and 620 nm—and report relative fluorescence units (RFU) for both emissions, as well as a ratio of the emissions (665 nm/620 nm)*10,000. […]

[2] = system: MOLP-8 human multiple myeloma cell line; assay: Caspase-Glo 3/7 assay in MOLP-8 cells; conditions: read-out: MOLP8 AC50; Caspase-Glo 3/7, 2 hours incubation; averaged over all runs on all batches
Excerpt: MCL-1 is a regulator of apoptosis and is highly over-expressed in tumor cells that escape cell death. The assay evaluates the cellular potency of small-molecule compounds targeting regulators of the apoptosis pathway, primarily MCL-1, Bfl-1, Bcl-2, and other proteins of the Bcl-2 family. Protein-protein inhibitors disrupting the interaction of anti-apoptotic regulators with BH3-domain proteins initiate apoptosis.
The Caspase-Glo® 3/7 Assay is a luminescent assay that measures caspase-3 and -7 activities in purified enzyme preparations or cultures of adherent or suspension cells. The assay provides a proluminescent caspase-3/7 substrate, which contains the tetrapeptide sequence DEVD. This substrate is cleaved to release aminoluciferin, a substrate of luciferase used in the production of light. Addition of the single Caspase-Glo® 3/7 Reagent in an “add-mix-measure” format results in cell lysis, followed by caspase cleavage of the substrate and generation of a “glow-type” luminescent signal. […]
Cell cultures were maintained between 0.2 and 2.0×10^6 cells/mL. […] The cells were counted and diluted as needed. […]
Compounds were delivered in assay-ready plates (Proxiplate) and stored at −20° C. […] The plates were then sealed and measured after 30 minutes.
The activity of a test compound was calculated as percent change in apoptosis induction as follows: […]

Compound: C[C@@H]1[C@@H](C)C/C=C(\F)[C@H](CO)N2CCC[C@H]2CN2C[C@@]3(CCCc4cc(Cl)ccc43)COc3ccc(cc32)C(=O)NS1(=O)=O
- Ki [1]: 0.39 nM
- AC50 [2]: 786 nM
